In patent publication US9040533B2, “Oxime-substituted-quinoxaline-type piperidine compounds as ORL-1 modulators” (priority 2012, dated 2015):
pIC50: −log10 of the molar value.

Sequences of proteins named here, by UniProt entry; tags and fusion partners are left off.
UniProt P11712, whole entry, looked up: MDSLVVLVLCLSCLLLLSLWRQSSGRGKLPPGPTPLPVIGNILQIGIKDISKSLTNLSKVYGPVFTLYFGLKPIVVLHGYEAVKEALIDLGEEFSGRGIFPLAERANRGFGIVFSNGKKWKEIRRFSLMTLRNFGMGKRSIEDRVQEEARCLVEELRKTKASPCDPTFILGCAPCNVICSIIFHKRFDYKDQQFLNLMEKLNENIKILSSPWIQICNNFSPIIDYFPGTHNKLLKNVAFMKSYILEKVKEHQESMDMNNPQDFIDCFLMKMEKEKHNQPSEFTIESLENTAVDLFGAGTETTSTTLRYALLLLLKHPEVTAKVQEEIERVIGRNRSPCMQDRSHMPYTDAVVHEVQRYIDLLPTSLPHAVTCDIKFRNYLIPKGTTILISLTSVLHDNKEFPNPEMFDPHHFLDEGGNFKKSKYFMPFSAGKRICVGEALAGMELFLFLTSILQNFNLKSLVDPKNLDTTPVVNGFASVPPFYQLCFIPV
UniProt P33261, whole entry, looked up: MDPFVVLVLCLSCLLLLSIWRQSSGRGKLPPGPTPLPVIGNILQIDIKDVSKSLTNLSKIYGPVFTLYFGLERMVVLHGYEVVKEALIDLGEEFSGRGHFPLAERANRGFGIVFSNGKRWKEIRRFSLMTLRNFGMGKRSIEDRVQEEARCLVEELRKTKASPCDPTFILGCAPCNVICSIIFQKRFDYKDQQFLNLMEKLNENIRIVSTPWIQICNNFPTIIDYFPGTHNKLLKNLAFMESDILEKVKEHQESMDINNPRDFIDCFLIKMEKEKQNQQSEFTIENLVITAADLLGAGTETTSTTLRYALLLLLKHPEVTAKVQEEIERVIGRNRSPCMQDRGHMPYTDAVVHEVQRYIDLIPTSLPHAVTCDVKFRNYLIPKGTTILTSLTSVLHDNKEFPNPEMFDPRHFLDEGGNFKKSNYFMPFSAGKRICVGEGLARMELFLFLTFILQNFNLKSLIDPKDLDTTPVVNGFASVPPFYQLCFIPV
UniProt P05177, whole entry, looked up: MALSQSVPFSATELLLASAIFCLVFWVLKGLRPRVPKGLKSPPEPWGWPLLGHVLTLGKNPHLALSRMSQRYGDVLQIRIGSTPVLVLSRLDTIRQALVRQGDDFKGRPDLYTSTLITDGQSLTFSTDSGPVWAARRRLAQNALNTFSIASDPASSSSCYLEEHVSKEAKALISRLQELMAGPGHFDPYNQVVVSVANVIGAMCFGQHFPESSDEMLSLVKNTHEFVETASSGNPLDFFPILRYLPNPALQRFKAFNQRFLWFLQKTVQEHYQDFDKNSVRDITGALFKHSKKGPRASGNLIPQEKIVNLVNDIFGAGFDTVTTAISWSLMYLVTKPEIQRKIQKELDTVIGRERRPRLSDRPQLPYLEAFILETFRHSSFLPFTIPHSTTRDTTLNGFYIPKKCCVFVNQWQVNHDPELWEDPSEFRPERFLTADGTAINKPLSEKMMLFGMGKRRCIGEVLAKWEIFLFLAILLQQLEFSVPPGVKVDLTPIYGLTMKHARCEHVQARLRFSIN
UniProt P10635, whole entry, looked up: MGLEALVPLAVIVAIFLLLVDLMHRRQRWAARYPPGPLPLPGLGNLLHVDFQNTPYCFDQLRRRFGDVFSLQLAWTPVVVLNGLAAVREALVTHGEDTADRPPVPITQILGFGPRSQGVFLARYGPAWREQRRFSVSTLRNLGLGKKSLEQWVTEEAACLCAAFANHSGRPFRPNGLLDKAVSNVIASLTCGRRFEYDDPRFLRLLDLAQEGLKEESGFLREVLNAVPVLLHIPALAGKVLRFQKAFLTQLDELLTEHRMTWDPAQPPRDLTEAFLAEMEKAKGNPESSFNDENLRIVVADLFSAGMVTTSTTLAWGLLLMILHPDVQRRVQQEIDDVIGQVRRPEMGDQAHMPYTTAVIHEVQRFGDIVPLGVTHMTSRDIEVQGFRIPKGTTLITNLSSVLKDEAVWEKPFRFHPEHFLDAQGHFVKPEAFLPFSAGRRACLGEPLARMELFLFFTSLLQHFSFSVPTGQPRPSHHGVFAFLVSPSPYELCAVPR
UniProt P08684, whole entry, looked up: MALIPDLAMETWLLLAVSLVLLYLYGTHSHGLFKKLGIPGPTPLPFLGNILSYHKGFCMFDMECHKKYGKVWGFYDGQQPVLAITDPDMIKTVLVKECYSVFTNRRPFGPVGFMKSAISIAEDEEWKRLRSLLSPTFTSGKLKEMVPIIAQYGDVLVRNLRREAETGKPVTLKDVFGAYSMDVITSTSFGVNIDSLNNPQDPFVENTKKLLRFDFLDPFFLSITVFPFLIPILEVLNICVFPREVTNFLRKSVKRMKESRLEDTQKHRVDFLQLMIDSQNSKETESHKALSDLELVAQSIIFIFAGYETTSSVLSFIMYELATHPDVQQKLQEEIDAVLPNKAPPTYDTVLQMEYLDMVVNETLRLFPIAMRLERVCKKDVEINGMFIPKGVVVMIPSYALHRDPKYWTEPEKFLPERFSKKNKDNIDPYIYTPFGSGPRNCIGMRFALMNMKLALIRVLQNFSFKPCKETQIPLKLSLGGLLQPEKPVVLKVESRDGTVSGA

Columns and labels:
CYP2C9 = CYP2C9 (Homo sapiens, UniProt P11712); test: Cytochrome P450 inhibition in pooled human hepatic microsome, CYP2C9; settings: read-out: Cytochrome P450 IC50 2C9
CYP2C19 = CYP2C19 (Homo sapiens, UniProt P33261); test: Cytochrome P450 inhibition in pooled human hepatic microsome, CYP2C19; settings: read-out: Cytochrome P450 IC50 2C19
CYP1A2 = CYP1A2 (Homo sapiens, UniProt P05177); test: Cytochrome P450 inhibition in pooled human hepatic microsome, CYP1A2; settings: read-out: Cytochrome P450 IC50 1A2
CYP2D6 = CYP2D6 (Homo sapiens, UniProt P10635); test: Cytochrome P450 inhibition in pooled human hepatic microsome, CYP2D6 (dextromethorphan O-demethylation); settings: read-out: Cytochrome P450 IC50 2D6
CYP3A4 = CYP3A4 (Homo sapiens, UniProt P08684); test: Cytochrome P450 inhibition in pooled human hepatic microsome, CYP3A4; settings: read-out: Cytochrome P450 IC50 3A4

Measured: pIC50

C/C(=N\OCC(=O)O)c1nc2ccccc2n([C@H]2C[C@H]3CCC[C@@H](C2)N3CC[C@@H]2CC[C@H]3C[C@@H]2C3(C)C)c1=O
< 4.70: all assays above
